Data taken from PMC6553764 (PLoS ONE, 2019).

Columns and labels:
Settings in all cases: both partners purified
Kap95 [1] = biological target: T1, Kap95 (UniProt Q06142 1-861); assay: SPR; FSFG6 immobilised via C-terminal Cys (GLC chip), medium density 550 RU; association 120 s; 100 ul/min, TBT-PVP, 25 C; fit: one-to-one plus mass transport limitation model
T1 construct: Kap95, a karyopherin transport factor; also called Kap95 without the GST domain
T1 sequence (looked up): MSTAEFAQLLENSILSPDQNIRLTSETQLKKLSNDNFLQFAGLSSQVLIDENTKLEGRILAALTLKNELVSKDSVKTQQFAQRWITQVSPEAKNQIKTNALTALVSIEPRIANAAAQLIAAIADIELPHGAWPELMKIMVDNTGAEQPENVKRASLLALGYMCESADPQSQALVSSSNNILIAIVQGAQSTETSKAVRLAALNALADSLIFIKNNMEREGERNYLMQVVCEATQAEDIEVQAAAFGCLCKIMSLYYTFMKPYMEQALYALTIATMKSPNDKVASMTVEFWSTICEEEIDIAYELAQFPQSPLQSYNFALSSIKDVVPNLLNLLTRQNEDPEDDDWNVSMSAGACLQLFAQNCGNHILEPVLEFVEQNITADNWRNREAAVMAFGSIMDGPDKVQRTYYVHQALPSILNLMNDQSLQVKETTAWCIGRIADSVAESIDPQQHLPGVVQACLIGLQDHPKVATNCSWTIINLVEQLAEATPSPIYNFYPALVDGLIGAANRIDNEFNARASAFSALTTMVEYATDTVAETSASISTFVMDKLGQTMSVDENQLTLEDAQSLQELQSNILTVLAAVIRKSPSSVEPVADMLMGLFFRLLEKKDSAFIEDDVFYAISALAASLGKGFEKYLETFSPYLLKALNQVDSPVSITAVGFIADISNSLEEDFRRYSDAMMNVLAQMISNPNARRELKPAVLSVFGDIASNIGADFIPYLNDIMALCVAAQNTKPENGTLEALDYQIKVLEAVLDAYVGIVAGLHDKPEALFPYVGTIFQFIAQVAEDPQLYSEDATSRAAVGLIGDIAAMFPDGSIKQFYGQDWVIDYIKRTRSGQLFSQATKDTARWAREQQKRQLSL

Kap95 [2] = biological target: T1, Kap95; assay: SPR; FSFG6 immobilised via C-terminal Cys (GLC chip), high density 791 RU; association 15 s; 100 ul/min, TBT-PVP, 25 C; fit: one-to-one plus mass transport limitation model
Kap95 [3] = biological target: T1, Kap95; assay: SPR; FSFG6 immobilised via C-terminal Cys (GLC chip), medium density 550 RU; association 120 s; 100 ul/min, TBT-PVP, 25 C; Langmuir isotherm analysis
Kap95 [4] = biological target: T1, Kap95; assay: SPR; FSFG6 immobilised via C-terminal Cys (GLC chip), medium density 550 RU; association 60 s; 100 ul/min, TBT-PVP, 25 C; Langmuir isotherm analysis
Kap95 [5] = biological target: T1, Kap95; assay: SPR; FSFG6 immobilised via C-terminal Cys (GLC chip), high density 791 RU; association 15 s; 100 ul/min, TBT-PVP, 25 C; fit: one-to-one model
Kap95 [6] = biological target: T1, Kap95; assay: SPR; FSFG6 immobilised via C-terminal Cys (GLC chip), medium density 550 RU; association 15 s; 100 ul/min, TBT-PVP, 25 C; Langmuir isotherm analysis
Kap95 [7] = biological target: T1, Kap95; assay: SPR; FSFG6 immobilised via C-terminal Cys (GLC chip), high density 791 RU; association 120 s; 100 ul/min, TBT-PVP, 25 C; fit: one-to-one model
Kap95 [8] = biological target: T1, Kap95; assay: SPR; FSFG6 immobilised via C-terminal Cys (GLC chip), high density 791 RU; association 120 s; 100 ul/min, TBT-PVP, 25 C; Langmuir isotherm analysis
Kap95 [9] = biological target: T1, Kap95; assay: SPR; FSFG6 immobilised via C-terminal Cys (GLC chip), low density 415 RU; association 120 s; 100 ul/min, TBT-PVP, 25 C; fit: one-to-one model

Kd (Kap95 [1]): 3.74 nM
koff (Kap95 [1]): 0.00318 s⁻¹
kon (Kap95 [1]): 851000 M⁻¹ s⁻¹
Kd (Kap95 [2]): 9.36 nM
koff (Kap95 [2]): 0.00335 s⁻¹
kon (Kap95 [2]): 358000 M⁻¹ s⁻¹
Kd (Kap95 [3]): 30.4 nM
Kd (Kap95 [4]): 30.8 nM
Kd (Kap95 [5]): 0.87 nM
koff (Kap95 [5]): 0.00209 s⁻¹
kon (Kap95 [5]): 2.41e+06 M⁻¹ s⁻¹
Kd (Kap95 [6]): 59.3 nM
Kd (Kap95 [7]): 3.2 nM
koff (Kap95 [7]): 0.00219 s⁻¹
kon (Kap95 [7]): 682000 M⁻¹ s⁻¹
Kd (Kap95 [8]): 22.4 nM
Kd (Kap95 [9]): 8.14 nM
koff (Kap95 [9]): 0.00261 s⁻¹
kon (Kap95 [9]): 321000 M⁻¹ s⁻¹
B1: FSFG6-Cys-His6 (domain or fragment)
chain: not shown
modifications: conjugated to the sensor surface through the C-terminal cysteine (maleimide)
notes: Segment of Nsp1FG (S. cerevisiae Nsp1) with six repeats of the FxFG-type region, followed by an added Cys, LE and His6
